According to PubChem BioAssay AID1347075 (National Center for Advancing Translational Sciences (NCATS), 2019):
This is a selection; strong and weak results do not stand in their true shares. Inconclusive results are not listed. Activity calls are given as the source filed them. Calls come from the whole dose curve; as a rule, active = well fitted cell-killing curve with a large enough effect; inconclusive = small, poorly fitted or top-dose-only effect, or effect the other way; inactive = flat fitted curve, though single readings scatter.

Experiment: qHTS assay for MDR1-selective chemotherapeutics: Primary screen using the parental adenocarcinoma cell KB-3-1; note: nearly all actives have a fitted effect of over 60% in size
Conditions: KB-3-1 viability, CellTiter-Glo ATP luminescence, 72 h; series mostly up to 46.1 µM; activity change, negative = cytotoxic: at the top concentration
Text: A prime difficulty in effectively treating cancer is the development of cellular resistance to multiple structurally unrelated anticancer drugs, a phenomenon known as multidrug resistance (MDR). […] Numerous strategies to overcome P-gp-mediated MDR have been explored, including the design of drugs that evade recognition and efflux, and development of inhibitors to block efflux and restore drug accumulation. […] An alternative approach is to exploit resistance by identifying drugs that target MDR cells over the non-resistant parental cells from which they were selected. […] The development of MDR1-selective agents represents a new strategy for resolving multidrug resistance, as it remains a long-standing clinical challenge for cancer chemotherapy.
Our goal is to identify compounds that selectively kill P-gp-expressing MDR cells. We will identify MDR1-selective compounds by comparing toxicity of compounds in the screening library against parental, drug-naive (KB-3-1) adenocarcinoma cells as well as their drug-selected MDR sub-line (KB-V1). The differential toxicity of compounds against these two cell lines will be used to identify MDR1-selective compounds, whose cytotoxicity is potentiated, rather than diminished, by P-gp expression. This assay will be utilized to conduct a quantitative high-throughput screen (qHTS) in collaboration with the NIH Chemical Genomics Center to identify selective agents, and probe hits arising from the screen will be validated using secondary assays and characterized through a well-established follow-up research program. This screen was run against the entire NCGC library collection of about 400,000 compounds.
NIH Molecular Libraries Probe Production Network [MLPCN]
NIH Chemical Genomics Center [NCGC]
PI: Michael Gottesman PhD, National Cancer Institute, NIH
Briefly, 5 microL of media containing either KB-3-1 cells (columns 1-2, 4-48) are dispensed into Greiner white, treated solid-bottom 1536-well assay plates (media-only control is added to column 3). Compounds are then transferred via Kalypsys pin tool equipped with 1536-pin array (10 nL slotted pins, V&P Scientific, San Diego, CA). Following addition of compound, the plates are incubated at 37 degrees C for 72 hours. CellTiter-Glo (2.5 µL/well) is then added, and the plates are read in a ViewLux reader (Perkin-Elmer, clear luminescence filter, 1 second exposure, 1x binning) following a 10 minute incubation. All cells are dispensed in DMEM phenol-red free media containing 10% FBS.
Library plates were screened starting from the lowest and proceeding to the highest concentration. Vehicle-only plates, with DMSO being pin-transferred to columns 5-48, will be inserted uniformly at the beginning and the end of each library in order to monitor and record any shifts in the background, which can be affected by reagent dispensers or loss in enzyme activity over time. Screening data will be corrected, normalized, and concentration-effect relationships will be derived by using publicly-available NCGC, NCATS curve fitting algorithms (http://ncgc.nih.gov/pub/openhts).
% is set by controls: 0 for no effect and ±100 for the full control effect.

Structure (SMILES)	activity change, negative = cytotoxic
O=[N+]([O-])c1ncn(CCn2ncnc2[N+](=O)[O-])n1	inactive: 2.21%
CC(C)(C)C(=O)NC(Sc1ccncn1)C(Cl)(Cl)Cl (stereo unspecified)	inactive: -1.35%
O=C(O)CNc1ccc([As](=O)(O)O)cc1	inactive: 0.167%
COC(=O)C1(C)COP(=O)(Nc2ccccc2)OC1 (stereo unspecified)	inactive: 21.8%
O=[N+]([O-])c1cccc(NC2=NCC(CBr)S2)c1 (stereo unspecified)	inactive: 0.802%
Cc1cc(C=O)ccc1N(CCCl)CCCl	inactive: 4.65%
O=P1(N(CCCl)CCCl)OCCCS1 (stereo unspecified)	inactive: 0.159%
O=P(/N=c1/nc(-c2ccccc2)n(-c2ccccc2)s1)(Nc1ccccc1)Nc1ccccc1	inactive: -38.3%
O=C(Nc1cc([As](=O)(O)O)ccc1O)c1ccccc1	inactive: 2.45%
CCN(/C(=N/P(=O)(N1CCOCC1)N1CCOCC1)N1CCOCC1)c1ccc(OC)cc1	inactive: 1.38%
Nc1ccc([As](=O)(O)c2ccc(N)cc2)cc1	inactive: 12.1%
CC1CCN(C(=O)Oc2c(Cl)cc(Cl)c3cccnc23)CC1	inactive: -13.7%
c1cc(-c2nn[nH]n2)ccc1-c1nn[nH]n1	inactive: -9.8%
COc1cc([N+](=O)[O-])c([N+](=O)[O-])cc1OC	inactive: -0.618%
CC(C)c1nc(Nc2ccccc2)n(P(=O)(N(C)C)N(C)C)n1	inactive: -17.1%
CC(C)=N/N=C(\N)N[N+](=O)[O-]	inactive: 13.1%
CN(C)C(=O)OCCc1n(C)cc[n+]1C	inactive: 9.17%
COc1ccc(C2=NCC(CBr)S2)cc1 (stereo unspecified)	inactive: 4.32%
Cc1ccc(NP(=O)(Oc2ccccc2)Oc2ccccc2)nc1	inactive: 4.21%
O=[N+]([O-])c1cc([N+](=O)[O-])c(CCNc2ccccc2)c([N+](=O)[O-])c1	inactive: -3.17%
O=[N+]([O-])c1cccc2n[nH]nc12	inactive: 4.05%

Structure (SMILES)	activity change, negative = cytotoxic
CC(=O)N1C2C3N(C(C)=O)C1C1N(C(C)=O)C(C(N1C(C)=O)N3C(C)=O)N2C(C)=O	inactive: 16.1%
Oc1ccccc1CNc1ccccn1	inactive: 9.02%
O=C(NC(Sc1ccncn1)C(Cl)(Cl)Cl)c1ccccc1 (stereo unspecified)	inactive: 5.51%
Nc1cc(N)c2nonc2c1[N+](=O)[O-]	inactive: -2.45%
CC(C)CC(=O)NC(Sc1ccc(Cl)cc1)C(Cl)(Cl)Cl (stereo unspecified)	inactive: -1.21%
O=[N+]([O-])C1C(O)C(O)C([N+](=O)[O-])C(O)C1O (stereo unspecified)	inactive: 0%
CN(C(=O)Cc1ccc(Cl)c(Cl)c1)[C@H]1CCCC[C@H]1N1CCCC1	inactive: -0.295%
Cc1ccc(N/C(=N/P(=O)(N2CCOCC2)N2CCOCC2)N2CCOCC2)cc1	inactive: -1.47%
CN1CCCC(OC(=O)C(c2ccccc2)c2ccccc2)C1 (stereo unspecified)	inactive: -0.32%
Clc1ccc(Cl)c(NC2=NCC(CBr)S2)c1 (stereo unspecified)	inactive: -2.3%
COc1ccccc1OP(=O)(Nc1ccc(C)cn1)Oc1ccccc1OC	inactive: 13.6%
Cc1ccc(OP(=O)(Nc2nccs2)Oc2ccc(C)cc2)cc1	inactive: -4.89%
Nc1c(O)cc([N+](=O)[O-])cc1[N+](=O)[O-]	inactive: 1.18%
Nc1cccc2ccc([As](=O)(O)O)cc12	inactive: 5.68%
CCN(N=Nc1nonc1N)c1nonc1N	inactive: 16.7%
O=P(Nc1nc2ccc(Cl)cc2s1)(c1ccccc1)c1ccccc1	inactive: 0%
CN(C)P(=O)(N(C)C)n1c(Nc2ccccc2)nnc1-c1ccccc1	inactive: 0%
CC(=O)Nc1ccc([As](=O)(O)O)cc1	inactive: 10.7%
O=C(O)c1ccccc1[As](=O)(O)O	inactive: -1.91%
CCCC1OP(N)(=O)OCC1CC (stereo unspecified)	inactive: -2.03%
Cc1cc(SC(NC(=O)c2ccc(F)cc2)C(Cl)(Cl)Cl)ncn1 (stereo unspecified)	inactive: 4.33%

Structure (SMILES)	activity change, negative = cytotoxic
CCOP(=O)(Nc1ccccc1)OCC	inactive: 12.9%
Cc1ccc(NP(=O)(Oc2ccccc2F)Oc2ccccc2F)nc1	inactive: -0.76%
CN(C(=O)Cc1ccc(Cl)c(Cl)c1)[C@H]1CCCC[C@@H]1N1CCCC1	inactive: -0.108%
O=C(OC1CN2CCC1CC2)c1ccccc1 (stereo unspecified)	inactive: 4.22%
CCC(=O)N1C2C3N(C(=O)CC)C1C1N(C(=O)CC)C(C(N1C(=O)CC)N3C(=O)CC)N2C(=O)CC	inactive: 6.69%
COC(=O)c1cc2c(s1)N=C(c1ccccc1)N(C)P2(=O)N1CCOCC1 (stereo unspecified)	inactive: 2.81%
CC(=O)NC(SC(=S)N(CC(C)C)CC(C)C)C(Cl)(Cl)Cl (stereo unspecified)	inactive: 10.7%
Cc1ccc(OP(=O)(Nc2ccccn2)Oc2ccc(C)cc2)cc1	inactive: -4.68%
CC(NC(=O)COC(=O)C(O)(c1ccccc1)c1ccccc1)c1ccccc1 (stereo unspecified)	inactive: -0.57%
Cc1ccccc1OP(=O)(Nc1ccccn1)Oc1ccccc1C	inactive: -7.97%
CN(C)C(=O)Oc1noc2ccccc12	inactive: 0.637%
c1ccc(-c2nn[nH]n2)c(-c2nn[nH]n2)c1	inactive: -4.58%
Cc1ccc(NP(=O)(Oc2cccc(C)c2)Oc2cccc(C)c2)nc1	inactive: 1.45%
O=[N+]([O-])c1cc([N+](=O)[O-])c2nc[nH]c2c1	inactive: 10%
CCNC(=S)/N=C(\N)N[N+](=O)[O-]	inactive: -3%
O=C(NC1CCS(=O)(=O)C1)NP(=S)(Oc1ccccc1)Oc1ccccc1 (stereo unspecified)	inactive: 3.45%
O=P1(N(CCCl)CCCl)OCCC2CCCCN21 (stereo unspecified)	inactive: -6.24%
Cc1ccccc1CN(C)C(=O)COC(=O)C(O)(c1ccccc1)c1ccccc1	inactive: 7.02%
C[C@H]1OP(=O)(Oc2ccccc2)C[C@@H]2O[C@@H]21 (stereo partly specified)	inactive: 8.77%
